Test results published in ChEMBL document CHEMBL1155529.

Chains of the proteins cited; added tags and fusions are not shown. Lines headed by an entry give the natural chain unless they say otherwise; changes in a name come on top.
UniProt Q63016: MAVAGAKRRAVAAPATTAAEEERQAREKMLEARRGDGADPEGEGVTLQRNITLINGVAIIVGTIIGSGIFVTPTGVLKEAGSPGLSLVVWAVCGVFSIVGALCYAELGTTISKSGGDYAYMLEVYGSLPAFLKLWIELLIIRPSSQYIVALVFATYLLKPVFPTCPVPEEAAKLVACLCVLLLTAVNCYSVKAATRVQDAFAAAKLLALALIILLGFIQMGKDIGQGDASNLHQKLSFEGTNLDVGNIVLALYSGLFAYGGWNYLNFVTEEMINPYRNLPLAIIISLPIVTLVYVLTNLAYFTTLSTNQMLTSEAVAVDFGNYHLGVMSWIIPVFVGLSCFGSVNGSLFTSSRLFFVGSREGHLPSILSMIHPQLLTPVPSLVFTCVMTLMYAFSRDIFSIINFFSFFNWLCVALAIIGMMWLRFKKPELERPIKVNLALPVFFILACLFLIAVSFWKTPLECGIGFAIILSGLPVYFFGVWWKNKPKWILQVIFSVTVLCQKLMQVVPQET

Each compound was assayed against Large neutral amino acids transporter small subunit 1 (Rattus norvegicus) (UniProt Q63016) (assay: Inhibition of LAT1-mediated L-[14C]leucine uptake in Sprague-Dawley rat brain by duel-labeled liquid scintillation counting).
For `NC1(C(=O)O)CCc2cccc(N(CCCl)CCCl)c2C1` (centres undefined), the inhibition was “Dose-dependent effect”.
`NC1(C(=O)O)CC2CC1c1ccccc12` (centres undefined) was tested, and the inhibition was “Dose-dependent effect”.
In the case of `NC1(C(=O)O)Cc2ccccc2C1`, the inhibition was “Dose-dependent effect”.
`NC1(C(=O)O)Cc2ccc(N(CCCl)CCCl)cc2C1` (centres undefined) was tested, and the inhibition was “Dose-dependent effect”.
